## Permeability data for macrocyclic peptides

Data: CycPeptMPDB; original report Townsend et al. 2020, doi:10.26434/chemrxiv.13335941.v1.

PAMPA measures passive passage through an artificial lipid membrane. P is given in units of 10^-6 cm/s (from log10 values with two decimals); larger means faster passage.

| PAMPA (10^-6 cm/s) | structure (SMILES) |
|---|---|
| 5.8 | CC(C)C[C@@H]1NC(=O)[C@@H](CC(C)C)NC(=O)[C@@H](C)N(C)C(=O)[C@@H]2CCCN2C(=O)[C@H](Cc2ccccc2)NC(=O)[C@H](CC(C)C)N(C)C(=O)[C@H]2CCCN2C1=O |
| 16 | CC(C)C[C@@H]1C(=O)N(C)[C@H](CC(C)C)C(=O)N2CCC[C@@H]2C(=O)N(C)[C@@H](CC(C)C)C(=O)N[C@@H](Cc2ccccc2)C(=O)N2CCC[C@@H]2C(=O)N[C@@H](C)C(=O)N1C |
| 7.9 | CC(C)C[C@@H]1C(=O)N[C@@H](Cc2ccccc2)C(=O)N2CCC[C@H]2C(=O)N(C)[C@@H](C)C(=O)N(C)[C@H](CC(C)C)C(=O)N[C@H](CC(C)C)C(=O)N2CCC[C@@H]2C(=O)N1C |
| 4.3 | CC(C)C[C@H]1C(=O)N(C)[C@@H](CC(C)C)C(=O)N2CCC[C@@H]2C(=O)N(Cc2ccccc2)CC(=O)N[C@@H](Cc2ccccc2)C(=O)N[C@H](C)C(=O)N1C |
| 1.4 | CC(C)C[C@@H]1C(=O)N[C@H](CC(C)C)C(=O)N2CCC[C@@H]2C(=O)N[C@H](CC(C)C)C(=O)N[C@@H](Cc2ccccc2)C(=O)N(C)[C@H](C)C(=O)N1C |
| 2.7 | CC(C)C[C@@H]1C(=O)N2CCC[C@@H]2C(=O)N(Cc2ccccc2)CC(=O)N[C@@H](Cc2ccccc2)C(=O)N[C@H](C)C(=O)N(C)[C@@H](CC(C)C)C(=O)N1C |
| 5.8 | CCCN1CC(=O)N(C)[C@H](CC(C)C)C(=O)N[C@H](CC(C)C)C(=O)N2CCC[C@@H]2C(=O)N(C)[C@H](CC(C)C)C(=O)N[C@@H](Cc2ccccc2)C(=O)N2CCC[C@@H]2C1=O |
| 1.9 | CC(C)C[C@@H]1C(=O)N[C@@H](Cc2ccccc2)C(=O)N2CCC[C@H]2C(=O)N(C)[C@H](C)C(=O)N(C)[C@@H](CC(C)C)C(=O)N[C@@H](Cc2ccccc2)CC(=O)N2CCC[C@H]2C(=O)N1C |
| 5 | CC(C)C[C@H]1C(=O)N(Cc2ccccc2)CC(=O)N2CCC[C@H]2C(=O)N(Cc2ccccc2)CC(=O)N[C@@H](Cc2ccccc2)C(=O)N(C)[C@H](C)C(=O)N1C |
| 4 | CC(C)C[C@@H]1C(=O)N2CCC[C@H]2C(=O)N(C)[C@@H](CC(C)C)C(=O)N[C@@H](Cc2ccccc2)C(=O)N2CCC[C@H]2C(=O)N(C)[C@@H](C)C(=O)N(C)[C@@H](CC(C)C)C(=O)N1C |
| 2.8 | CC(C)C[C@H]1NC(=O)[C@@H]2CCCN2C(=O)CN(Cc2ccccc2)C(=O)[C@H](CC(C)C)N(C)C(=O)C[C@H](Cc2ccccc2)NC(=O)[C@H]2CCCN2C(=O)[C@H](Cc2ccccc2)NC1=O |
| 2.5 | CC(C)C[C@@H]1C(=O)N[C@@H](Cc2ccccc2)C(=O)N2CCC[C@H]2C(=O)N[C@@H](Cc2ccccc2)CC(=O)N(C)[C@@H](CC(C)C)C(=O)N(Cc2ccccc2)CC(=O)N2CCC[C@H]2C(=O)N1C |
| 1.2 | CCCN1CC(=O)N[C@H](CC(C)C)C(=O)N[C@H](CC(C)C)C(=O)N2CCC[C@@H]2C(=O)N(Cc2ccccc2)CC(=O)N[C@@H](Cc2ccccc2)C1=O |
| 0.4 | CC(C)C[C@@H]1NC(=O)[C@@H]2CCCN2C(=O)C[C@H](Cc2ccccc2)NC(=O)[C@H](CC(C)C)N(C)C(=O)[C@@H](C)N(C)C(=O)[C@@H]2CCCN2C(=O)[C@H](Cc2ccccc2)NC1=O |
| 1.8 | CC(C)C[C@@H]1NC(=O)[C@@H](C)NC(=O)[C@H]2CCCN2C(=O)[C@H](Cc2ccccc2)NC(=O)[C@@H](CC(C)C)N(C)C(=O)[C@@H]2CCCN2C(=O)CN(Cc2ccccc2)C1=O |

Repeated from above, the 2 entries with the highest PAMPA:

{"smiles": "CC(C)C[C@@H]1C(=O)N(C)[C@H](CC(C)C)C(=O)N2CCC[C@@H]2C(=O)N(C)[C@@H](CC(C)C)C(=O)N[C@@H](Cc2ccccc2)C(=O)N2CCC[C@@H]2C(=O)N[C@@H](C)C(=O)N1C", "PAMPA (10^-6 cm/s)": "16"}
{"smiles": "CC(C)C[C@@H]1C(=O)N[C@@H](Cc2ccccc2)C(=O)N2CCC[C@H]2C(=O)N(C)[C@@H](C)C(=O)N(C)[C@H](CC(C)C)C(=O)N[C@H](CC(C)C)C(=O)N2CCC[C@@H]2C(=O)N1C", "PAMPA (10^-6 cm/s)": "7.9"}

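The data file gives no further conditions (lipid, pH, time, direction or concentration), and values from different papers need not be comparable. The list need not hold all peptides of the study. Peptides that the database sets to -10, its floor, are left out.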